The target of experiment [1] is T1, human MOR (Homo sapiens, UniProt P35372).
T1 construct: FLAG (N); expressed in transfected cells; host or cells: HEK 293
The experiment is classed as cell-based.

Sequences of proteins named here, by UniProt entry; tags and fusion partners are left off.
UniProt P35372, whole entry: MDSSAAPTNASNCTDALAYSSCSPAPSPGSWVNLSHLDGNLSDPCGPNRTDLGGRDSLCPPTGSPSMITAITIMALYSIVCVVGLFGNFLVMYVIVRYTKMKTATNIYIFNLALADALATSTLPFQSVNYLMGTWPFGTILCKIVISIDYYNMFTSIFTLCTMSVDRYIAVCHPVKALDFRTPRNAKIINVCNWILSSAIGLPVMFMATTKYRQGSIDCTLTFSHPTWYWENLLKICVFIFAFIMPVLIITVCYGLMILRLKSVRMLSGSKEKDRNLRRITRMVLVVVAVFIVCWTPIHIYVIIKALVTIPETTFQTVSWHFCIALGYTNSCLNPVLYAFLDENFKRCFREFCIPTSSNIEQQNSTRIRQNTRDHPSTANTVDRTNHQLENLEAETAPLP

Experiment [2] concerns the target T1, human MOR. The experiment is classed as biochemical.

This is an account of results in patent publication US6713488B2 (priority 2000, dated 2004).

Turning to “D-Phe-Cys-Tyr-D-Trp-Arg-Thr-Pen-Thr-Nh2 [CTAP, reference compound]”, the “effect on forskolin stimulated cAMP levels” value in experiment [1] is listed as “no effect”. Moreover, in experiment [2], the “blockade of inverse-agonistic effects of β-CNA” value is recorded as “blocked” and the “effect on basal 35S-GTPγS binding activity” value is given as “no significant effect”.
